In patent US10604554B2, “Double-acylated GLP-1 derivatives” (Novo Nordisk A/S, priority 2012, dated 2020):
Where two headings read alike, the source gives them in different places.

Sequences of proteins named here, by UniProt entry; tags and fusion partners are left off. Residues count along the entry.
UniProt P43220, 24-463: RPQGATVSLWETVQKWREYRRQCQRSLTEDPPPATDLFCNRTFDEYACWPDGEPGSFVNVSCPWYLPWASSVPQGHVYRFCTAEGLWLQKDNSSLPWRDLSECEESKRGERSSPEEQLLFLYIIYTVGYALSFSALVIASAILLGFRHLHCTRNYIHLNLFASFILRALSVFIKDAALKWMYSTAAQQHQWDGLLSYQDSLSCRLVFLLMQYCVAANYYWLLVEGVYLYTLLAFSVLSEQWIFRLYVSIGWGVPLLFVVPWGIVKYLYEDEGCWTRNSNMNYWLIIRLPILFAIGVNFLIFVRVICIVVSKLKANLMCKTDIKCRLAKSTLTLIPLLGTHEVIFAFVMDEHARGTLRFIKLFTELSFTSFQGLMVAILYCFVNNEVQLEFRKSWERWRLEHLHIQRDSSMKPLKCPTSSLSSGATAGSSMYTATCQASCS

Molecular target: T1, human GLP-1 receptor (Homo sapiens, UniProt P43220)
T1 construct: expressed in transfected cells; host or cells: BHK cells, clone FCW467-12A/KZ10-1 (parent line BHKTS13), further transfected with CRE luciferase
Experiment: In vitro potency (CRE luciferase; whole cells)
Format: cell-based
Set-up: EC50/pM (ratio 1% HSA/0% HSA): unit not given here
Conditions: for EC50: BHK cells
Method: The purpose of this example is to test the activity, or potency, of the GLP-1 derivatives in vitro. The in vitro potency is the measure of human GLP-1 receptor activation in a whole cell assay.
In vitro potency was determined by measuring the response of human GLP-1 receptor in a reporter gene assay. The assay was performed in a stably transfected BHK cell line that expresses the human GLP-1 receptor and contains the DNA for the cAMP response element (CRE) coupled to a promoter and the gene for firefly luciferase (CRE luciferase). When the human GLP-1 receptor was activated it results in the production of cAMP, which in turn results in the luciferase protein being expressed. When assay incubation was completed the luciferase substrate (luciferin) was added and the enzyme converts luciferin to oxyluciferin and produces bioluminescence. The luminescence was measured and was the readout for the assay.
An increase of the in vitro potency, EC50 value, in the presence of serum albumin indicates an affinity to serum albumin and represents a method to predict a protracted pharmacokinetic profile of the test substance in animal models.
The cells were cultured at 5% CO2 in cell culture medium. They were aliquoted and stored in liquid nitrogen. Before each assay an aliquot was taken up and washed twice in PBS before being suspended at the desired concentration in the assay specific buffer.
The following chemicals were used in the assay: Pluronic F-68 (10%) (Gibco 2404), human serum albumin (HSA) (Sigma A9511), ovalbumin (Sigma A5503), DMEM w/o phenol red (Gibco 11880-028), 1 M Hepes (Gibco 15630), Glutamax 100× (Gibco 35050) and steadylite plus (PerkinElmer 6016757).
1) Cell stocks were thawed in a 37° C. water bath. […]
3) The cells were counted and adjusted to 5×10^3 cells/50 μl (1×10^5 cells/ml) in assay medium. […]
4) Stocks of the test compounds and reference compounds were diluted to a concentration of 0.2 μM in 0% assay buffer for the 0% HSA CRE luciferase assay and 1% assay buffer for the HSA CRE luciferase assay. […] 10) Each assay plate was read in a Packard TopCount NXT instrument. […]

EC50 (0% HSA, read-out: In vitro potency (CRE luciferase) EC50 (0% HSA)): 0.0033 nM | EC50 (In vitro potency (CRE luciferase) EC50 (1% HSA), 1% HSA): 4.57 nM | EC50/pM (ratio 1% HSA/0% HSA) (ratio of EC50 at 1% HSA to EC50 at 0% HSA): 1508
SMILES: CC[C@H](C)[C@H](NC(=O)[C@H](Cc1ccccc1)NC(=O)[C@H](CCC(=O)O)NC(=O)[C@H](CCCCNC(=O)[C@@H](N)CCCCNC(=O)[C@@H](N)CCCCNC(=O)CC[C@H](NC(=O)CCCCCCCCCCCCCCC(=O)O)C(=O)O)NC(=O)[C@H](C)NC(=O)[C@H](C)NC(=O)[C@H](CCC(N)=O)NC(=O)CNC(=O)[C@H](CCC(=O)O)NC(=O)[C@H](CC(C)C)NC(=O)[C@H](Cc1ccc(O)cc1)NC(=O)[C@H](CO)NC(=O)[C@H](CO)NC(=O)[C@@H](NC(=O)[C@H](CC(=O)O)NC(=O)[C@H](CO)NC(=O)[C@@H](NC(=O)[C@H](Cc1ccccc1)NC(=O)[C@@H](NC(=O)CNC(=O)[C@H](CCC(=O)O)NC(=O)C(C)(C)NC(=O)[C@@H](N)Cc1c[nH]cn1)[C@@H](C)O)[C@@H](C)O)C(C)C)C(=O)N[C@@H](C)C(=O)N[C@@H](Cc1c[nH]c2ccccc12)C(=O)N[C@@H](CC(C)C)C(=O)N[C@H](C(=O)N[C@@H](CCCNC(=N)N)C(=O)NCC(=O)N[C@@H](CCCNC(=N)N)C(=O)N[C@@H](CCCCNC(=O)[C@@H](N)CCCCNC(=O)[C@@H](N)CCCCNC(=O)CC[C@H](NC(=O)CCCCCCCCCCCCCCC(=O)O)C(=O)O)C(=O)O)C(C)C [Example 6, N^ε26-[(2S)-2-amino-6-[[(2S)-2-amino-6-[[(4S)-4-carboxy-4-(15-carboxypentadecanoylamino)butanoyl]amino]hexanoyl]amino]hexanoyl], N^ε37-[(2S)-2-amino-6-[[(2S)-2-amino-6-[[(4S)-4-carboxy-4-(15-carboxypentadecanoylamino)butanoyl]amino]hexanoyl]amino]hexanoyl]-[Aib^8,Arg^34,Lys^37]-GLP-1-(7-37)-peptide]
